# Measured values as given in patent publication US20220312768A1, “COMBINATIONS OF AGROCHEMICALS WITH METABOLIC INHIBITORS” (THE BOARD OF TRUSTEES OF THE UNIVERSITY OF ARKANSAS, priority 2021, published 2022).
# Tested on: Palmer amaranth
# Assay: Greenhouse experiment, GST blockers added to KFD-581-01, Palmer amaranth control and biomass reduction
# Type: in vivo, Amaranthus palmi
# Settings: 67 g ai/ha versus 17 or 34 g ai/ha, + KFD-581-01 300 g ai/ha
smiles,measurement,value
O=[N+]([O-])c1ccc(Cl)c2nonc12,Efficacy at the highest rate versus low or mid rates,decreased efficacy at the highest rate
